Screens: PubChem BioAssay, Broad Institute
Only some compounds are listed: those with a hit (about 1.2% of all), similar ones and a draw of the others.
miR122 inh: blocks miR-122 activity in Huh7 sensor cells. actives 0.3% (n = 340,000). Huh7 miR-122 Renilla luciferase sensor, 48 h; neutral wells = 0, positive control = 100. activation (reporter increase), % at 12.5 µM. AID 602342;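 active = mean replicate activation score at least 90 and every replicate individually at or above 90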;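 note: higher luciferase means less miR-122 activity so hits act as miR-122 inhibitors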
Glyco luc inh: N-linked glycosylation inhibition; D54 ERlucT glycosylation luciferase reporter, 24 h; percent of 100 nM tunicamycin response; reporter increase, % at 12.5 µM; actives 0.23% (n = 360,000); AID 588692;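 active = mean luciferase reporter signal, scaled so untreated is 0 and the glycosylation-blocking control 100, at or above a set limit in every replicate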;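 note: luciferase carries N-glycosylation sites so blocking glycosylation raises the light; 0% = median of neutral control wells and 100% = median of 100 nM tunicamycin wells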
UUG fidelity: modulators of start codon recognition fidelity in yeast. S. cerevisiae UUG-firefly luciferase reporter, luminescence/redox ratio. activity score, % at 18.7 µM. 0.13% of 350,000 active. AID 602363;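 active = replicate mean at a twofold rise or more, about +100% in these data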;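 also: firefly luciferase made from a UUG start codon reports start codon fidelity; reporter light over untreated wells divided by growth signal over untreated wells; some hits fall short of that in this replicate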
Cneo AK release: Cryptococcus neoformans lysis via adenylate kinase release; C. neoformans lysis, adenylate kinase release luminescence, 4 h; normalised: neutral wells 0, clomiphene wells 100; lysis activity, % at 15 µM; actives 0.2% (n = 360,000); AID 651654;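 active = mean lysis activity across replicates of at least 80%, whatever share of replicates individually reach that level; inactive = mean lysis activity below 80%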
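Material – Cryptococcus neoformans yeast cells · Quantity – 5 × 10^6 yeast cells/mL · Buffer or medium – YPD medium · Compound – single dose · Timing – 4 h static compound exposure, 37 °C, read 1 h post-reagent · Signal – adenylate kinase release luminescence · Read-out basis – lysis from increased AK signal · Benchmarks – Clomiphene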
Statin myotox sup: suppression of simvastatin myotoxicity. C2C12 myotubes + simvastatin, ATP luminescence, 48 h; scaled: DMSO 0, geranylgeraniol control 100. rescue of ATP level, % at 7.49 µM. actives 0.78% (n = 330,000). AID 602340;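 active = mean ATP rescue above about 67%, or every replicate alone reaching that limit, limit read from the data, passing the limit was not always enough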;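 note: myotubes were challenged with 10 µM simvastatin during compound exposure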
* = called active by the depositor; . = not tested or not shown; [ ] = remark or other dose.

Values run as follows: Glyco luc inh, miR122 inh, Cneo AK release, Statin myotox sup, UUG fidelity
COc1cc(NC(=O)Cn2cnc(S(=O)(=O)N3CCC(C)CC3)c2)cc(OC)c1OC
→ 0, 1, -2, 12, -4
OCC[C@H]1C[C@@H](O)[C@H](O)[C@@]2(Cc3ccccc3O2)O1
→ 0, -8, 2, 118*, -5
OCC[C@@H]1C[C@H](O)[C@@H](O)[C@]2(Cc3ccccc3O2)O1
→ 2, 5, 2, -2, -5
Cc1ccc2nc3ccc(N4CCCC4)nn3c(=O)c2c1
→ 3, 0, -1, -5, -32
Cc1sc2nc3ccc(N4CCCCC4)nn3c(=O)c2c1C
→ 3, -17, -12, 113*, -12
C[C@H](CO)N1C[C@H](C)[C@H](CN(C)Cc2ccncc2)OCCCC[C@H](C)Oc2ccc(NC(=O)NC3CCCCC3)cc2C1=O
→ ., 2[16.7 µM], 6, -13, 10
CN(C)C(=O)c1cccc(-c2cnc3c(NC=O)cc(-c4ccccc4Cl)cn23)c1
→ 35*, ., -1, -5, -17
CN(C)C(=O)c1cccc(-c2cnc3c(NC=O)cc(-c4ccccc4N(C)C)cn23)c1
→ 11, -6, 1, -9, -42
COc1ccc(-n2c(C)cc(C=O)c2C)cc1Cl
→ -3, 0, 2, 102*, 3
CNC(=O)C[C@@H]1CC[C@H]2[C@@H](COc3ccc(NC(=O)Nc4cccc(C)c4)cc3C(=O)N2C)O1
→ ., 49[16.7 µM], -2, 4, 12
O=C(NCc1ccc(F)cc1)c1ccc2c(c1)S(=O)(=O)c1ccccc1C2=O
→ 0, -8, 1, 27, 1
Cc1nnc(N2C(=O)c3cccc4cccc(c34)C2=O)s1
→ 1, 5, ., ., .
CCCc1nnc(N2C(=O)c3cccc4cccc(c34)C2=O)s1
→ -1, -1, 0, 85*, -16
Cc1cc(C)cc(-n2c(SCC(=O)Nc3cccc(S(=O)(=O)NC4=NCCCCC4)c3)nc3ccccc3c2=O)c1
→ -2, -5, -1, ., -11
Cc1ccc(C(=O)N/C(=C\c2ccco2)C(=O)NCCc2c[nH]c3ccccc23)cc1
→ 30*, ., ., ., .
Cc1ccc(/C=C(/NC(=O)c2ccccc2)C(=O)NCCc2c[nH]c3ccccc23)o1
→ 2, -3, 6, ., 5
Cc1ccc(C(=O)N/C(=C/c2cccs2)C(=O)NCCc2c[nH]c3ccccc23)cc1
→ 55*, -2, -3, 4, -4
CO[C@@H]1CN(C)C(=O)c2cc(NC(=O)C3CC3)ccc2OC[C@H](C)N(Cc2cccnc2)C[C@@H]1C
→ ., -3[16.7 µM], 53, -11, 0
CC(=O)Nc1cccc(NC(=O)C(C)N2c3cccc4cccc(c34)S2(=O)=O)c1 (stereo not drawn)
→ 1, 0, 5, -30, 4
C/C(=N\NC(=O)c1c(Cl)c(C)nn1C)c1ccc(NC(=O)C2CCC2)cc1
→ 20, 66, 7, -97, 0

Shown as a hit in Glyco luc inh, of those listed so far:
| compound | Glyco luc inh | miR122 inh | UUG fidelity |
| --- | --- | --- | --- |
| CN(C)C(=O)c1cccc(-c2cnc3c(NC=O)cc(-c4ccccc4Cl)cn23)c1 | 35* | . | -17 |
| Cc1ccc(C(=O)N/C(=C\c2ccco2)C(=O)NCCc2c[nH]c3ccccc23)cc1 | 30* | . | . |
| Cc1ccc(C(=O)N/C(=C/c2cccs2)C(=O)NCCc2c[nH]c3ccccc23)cc1 | 55* | -2 | -4 |

Carrying on.
Values run as follows: Glyco luc inh, miR122 inh, Cneo AK release, Statin myotox sup, UUG fidelity
C/C(=N\NC(=O)c1c([N+](=O)[O-])c(C)nn1C)c1ccc(NC(=O)C2CCCC2)cc1
→ 33*, 72, 2, -105, -14
C[C@@H]1CCCCO[C@H](CN(C)C)[C@@H](C)CN([C@@H](C)CO)C(=O)c2cc(NC(=O)Nc3ccc4c(c3)OCO4)ccc2O1
→ ., 4[16.7 µM], 44, 3, 31
CC(C)N1C(=O)CC(Nc2ccc(N3CCOCC3)cc2)C1=O (stereo not drawn)
→ 4, 183*, -3, -22, -15
COc1cc(C2c3[nH]c4ccccc4c3CC3COC(=O)N32)cc(OC)c1O (stereo not drawn)
→ 36*, 12, ., ., .
Cn1c2ccccc2c2cc([N+](=O)[O-])ccc21
→ 2, ., ., -8, .
CCN(CC)CCn1c2ccccc2c2nc3ccc([N+](=O)[O-])cc3cc21
→ 70*, -22, 2, ., -3
COc1cc2c(cc1OC)C(c1cccs1)N(C(=S)NC(C)C)CC2 (stereo not drawn)
→ 45*, ., ., ., .
COc1cc2c(cc1OC)C(c1cccs1)N(C(=O)c1ccc(S(=O)(=O)N(C)C)cc1)CC2 (stereo not drawn)
→ 3, 3, -1, 7, -11
CC(=O)N1CCSc2ccc(S(=O)(=O)NCCc3ccc(C)cc3)cc21
→ 0, 86, 1, 0, 21
Cc1cccc(NC(=O)c2cccc(NS(=O)(=O)c3ccc(Cl)cc3)c2)c1
→ -1, 3, 0, 105*, -3
CC(=O)N1CCSc2ccc(S(=O)(=O)NCCc3ccc(Cl)cc3)cc21
→ 1, 94*, -8, -23, -12
